{
  "source": "patent US8563695B2",
  "about": "“Antibodies that bind β2” (Genentech, Inc., priority 2007, dated 2013)",
  "system": "SW620 cells",
  "assay": "Stimulation of SW620 cells with Notch ligands (co-culture or plate-bound) for EMT induction",
  "assay_type": "cell-based, human",
  "conditions": "exogenous ligand in trans by co-culture or plate-bound; data not shown",
  "description": "SW620 cells express the Notch ligands Jagged1 and Jagged2 (FIG. 11D), yet are not undergoing EMT. Given the apparent role of Notch signaling in the EMT induced by β2, we investigated whether Notch ligands from the Jagged or Delta-like families could induce EMT. Cells were stimulated by exogenous addition of the ligands Jagged1 or DLL1 in various formats, including in trans by co-culture with ligand-expressing cells or using plate-bound ligand, but no evidence of EMT was observed under any of the conditions used (data not shown). As a positive control, co-culture of Notch ligand-expressing cells with 3T3 cells transfected with Notch1 produced evidence of Notch pathway signaling as determined by a luciferase reporter assay from a CSL-binding promoter construct (data not shown).",
  "data": [
    {"molecule": "DLL1: Notch ligand of the Delta-like family, added exogenously (co-culture or plate-bound) (protein, UniProt O00548 18-723, looked up) Delta-like protein 1: QVWSSGVFELKLQEFVNKKGLLGNRNCCRGGAGPPPCACRTFFRVCLKHYQASVSPEPPCTYGSAVTPVLGVDSFSLPDGGGADSAFSNPIRFPFGFTWPGTFSLIIEALHTDSPDDLATENPERLISRLATQRHLTVGEEWSQDLHSSGRTDLKYSYRFVCDEHYYGEGCSVFCRPRDDAFGHFTCGERGEKVCNPGWKGPYCTEPICLPGCDEQHGFCDKPGECKCRVGWQGRYCDECIRYPGCLHGTCQQPWQCNCQEGWGGLFCNQDLNYCTHHKPCKNGATCTNTGQGSYTCSCRPGYTGATCELGIDECDPSPCKNGGSCTDLENSYSCTCPPGFYGKICELSAMTCADGPCFNGGRCSDSPDGGYSCRCPVGYSGFNCEKKIDYCSSSPCSNGAKCVDLGDAYLCRCQAGFSGRHCDDNVDDCASSPCANGGTCRDGVNDFSCTCPPGYTGRNCSAPVSRCEHAPCHNGATCHERGHRYVCECARGYGGPNCQFLLPELPPGPAVVDLTEKLEGQGGPFPWVAVCAGVILVLMLLLGCAAVVVCVRLRLQKHRPPADPCRGETETMNNLANCQREKDISVSIIGATQIKNTNKKADFHGDHSADKNGFKARYPAVDYNLVQDLKGDDTAVRDAHSKRDTKCQPQGSSGEEKGTPTTLRGGEASERKRPDSGCSTSKDTKYQSVYVISEEKDECVIATEV", "values": [
      {"measurement": "Induction of EMT or related morphological change", "result": "no evidence of induction of EMT or related morphological change"}
    ]}
  ]
}
